From article PMC12430169, “Notoginsenoside R1, a Metabolite from Panax notoginseng, Prevents Paclitaxel-Induced Peripheral Neuropathic Pain in Mice” (Molecules, 2025) come the findings set out here.

Chains of the proteins cited; added tags and fusions are not shown.
UniProt Q99685, whole entry: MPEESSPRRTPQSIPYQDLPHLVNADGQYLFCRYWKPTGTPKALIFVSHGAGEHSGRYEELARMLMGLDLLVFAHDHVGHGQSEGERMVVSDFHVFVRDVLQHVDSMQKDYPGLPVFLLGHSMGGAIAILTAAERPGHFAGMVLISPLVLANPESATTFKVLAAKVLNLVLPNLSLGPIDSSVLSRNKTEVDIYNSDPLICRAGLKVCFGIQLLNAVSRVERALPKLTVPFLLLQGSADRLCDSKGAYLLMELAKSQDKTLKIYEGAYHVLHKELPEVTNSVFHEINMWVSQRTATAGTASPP

The target of the assay is T1, human recombinant monoacylglycerol lipase (MAGL) (Homo sapiens, UniProt Q99685).
T1 construct: gene MGLL
Put plainly: biochemical.

pIC50: −log10 of the molar value.

Consider `O=C(Oc1ccc([N+](=O)[O-])cc1)N1CCN(Cc2cccc(Oc3ccccc3)c2)CC1` [JZL195], for which the negative logarithm of the IC50 (pIC50) is 6.48.

The term pIC50 denotes the IC50 on a negative log10 scale, so that one unit is a factor of ten.
